The text below walks through data of paper PMC11604427 (Frontiers in Pharmacology, 2024).

By UniProt entry, the sequences of proteins in these tests, tags left out.
UniProt Q92769, whole entry, looked up: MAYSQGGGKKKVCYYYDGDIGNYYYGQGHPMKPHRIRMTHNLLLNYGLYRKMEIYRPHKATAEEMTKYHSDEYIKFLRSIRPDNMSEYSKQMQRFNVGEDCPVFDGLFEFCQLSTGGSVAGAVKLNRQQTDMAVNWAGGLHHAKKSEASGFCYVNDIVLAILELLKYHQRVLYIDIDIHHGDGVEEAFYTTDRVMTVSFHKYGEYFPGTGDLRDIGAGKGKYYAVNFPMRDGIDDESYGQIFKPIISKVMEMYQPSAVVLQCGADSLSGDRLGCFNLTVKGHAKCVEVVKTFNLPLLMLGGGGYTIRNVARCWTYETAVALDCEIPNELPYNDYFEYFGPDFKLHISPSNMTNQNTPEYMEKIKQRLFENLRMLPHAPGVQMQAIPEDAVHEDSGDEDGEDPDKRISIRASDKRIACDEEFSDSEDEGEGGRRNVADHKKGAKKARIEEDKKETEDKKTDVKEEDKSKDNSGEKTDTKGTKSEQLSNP

The assay has as its target Human recombinant HDAC2 enzyme (Homo sapiens, UniProt Q92769). As to the kind of experiment: HDAC2 fluorescence enzyme inhibition assay (Boc-Lys(acetyl)-AMC). The class given is biochemical. The note with it: fluorescence signal-based method.

As for `Cc1ccc(O)c(C)c1-n1c(N)c(C(N)=O)c2nc3c(Br)cccc3nc21`, the “HDAC2 (IC50, nM)” value is on record as “no inhibition”.
